# AlphaSeq binding of Ab-91 heavy chain variants to a spike HR2 peptide

The measurements come from Engelhart et al. 2022 (doi:10.1038/s41597-022-01779-4) through the FLAb antibody collection.

All variants were tested on one target, the spike HR2 peptide PDVDLGDISGINAS (SARS-CoV-2).

Parent scFv Ab-91: VL joined to VH by a (GGGGS)3 linker. Changes lie in the heavy chain CDRs alone.
VL: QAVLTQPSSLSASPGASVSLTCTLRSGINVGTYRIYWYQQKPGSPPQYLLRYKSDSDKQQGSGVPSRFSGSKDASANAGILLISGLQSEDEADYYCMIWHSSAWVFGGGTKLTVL
VH: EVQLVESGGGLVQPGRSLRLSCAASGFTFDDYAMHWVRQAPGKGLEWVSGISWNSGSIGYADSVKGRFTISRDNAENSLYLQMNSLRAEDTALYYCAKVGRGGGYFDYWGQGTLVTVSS

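The starting antibody came from a phage panning campaign against this peptide. Library AAYL51 holds single substitutions and randomly drawn double and triple substitutions in the CDRs. In AlphaSeq, yeast of one mating type display the scFv and yeast of the other type display the target. Pairs that bind mate more often; barcode pairs of the diploids are counted by sequencing. The ratio of observed to expected reads was calibrated, replicate by replicate, on BCL2-family standards whose Kd was known from biolayer interferometry. There are three technical replicates.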

Each variant is given by its three heavy chain CDRs, as the data file delimits them; those of the parent are GFTFDDYAMH, GISWNSGSIGYADSVK, VGRGGGYFDY.
The read-out is the apparent dissociation constant on a log10 scale (nM): the lower, the stronger.
Replicates are averaged; those with no signal do not enter the mean.
"ND" marks a missing value. The strain was present, yet no cells mated with the target were sequenced in that replicate, which points to weak or no binding.
In this assay the parent's reference entry averaged 1.86; its copy inside this library read 0.88.

| CDR-H1 | CDR-H2 | CDR-H3 | log10 Kd (nM) by replicate | mean, log10 nM | signal with controls |
|---|---|---|---|---|---|
| GFLFDDYAMH | GISCNSGSIGYADSVK | VGRGGYYFDY | 4.98 4.72 3.07 | 4.26 | 3/9 (4.36) |
| GFTKDDYAMH | GISWVSGSAGYADSVK | VGRGGGYFDY | ND ND ND | ND | 4/9 (4.14) |
| GWTFDDPAVH | GISWNSGSIGYADSVK | VGRGGGYFDY | ND ND ND | ND | 1/9 (4.63) |
| GFTFDYYAMH | GISWNSGSIGMADSVK | VGRGGGYFDG | ND ND ND | ND | 0/9 |
| GFTFDDYAMH | GKCWNSGSIGYADSVK | VGRGGMYFDY | 5.65 ND ND | 5.65 | 1/9 (4.26) |
| GFTFDDYASH | GISWNSGSIGYACSVK | VGRGGGYFHY | ND ND 5.74 | 5.74 | 6/9 (5.34) |
| GFTFDDYAMH | GISVNSGSIGYFDSVK | VMRGGGYFDY | 3.88 ND 5.18 | 4.53 | 2/9 (4.73) |
| GFYFDDYAMH | GISWNIKSIGYADSVK | VGRGGGYFDY | ND ND ND | ND | 0/9 |
| GFTFDDYAMH | GISWNSGYIGYADVVK | VGRGGGYFDY | 4.14 ND ND | 4.14 | 0/9 |
| GMTFDDYAMH | GISWNSGSIGYADSVK | CGRGGGYYDY | 6.01 5.28 ND | 5.65 | 6/9 (5.40) |
| GFTFDDYADH | GMSWNSGSIGYADSVK | VGRGGGYFEY | ND ND ND | ND | 3/9 (4.35) |
| GFTFDDYAMH | GISWNSGSIGYADSVK | VGRGFGKFDY | ND ND ND | ND | 0/9 |
| GFTFDDYAMT | GIQWNSGSIGYADSVK | VGRGGGYFMY | ND ND ND | ND | 0/9 |
| GFTFDDVAMH | GISWNSGSIGYAWSVK | QGRGGGYFDY | ND 5.60 ND | 5.60 | 2/9 (4.29) |
| GFTFDDYAMH | GICWNSGSISYAYSVK | VGRGGGYFDY | ND ND ND | ND | 4/9 (4.43) |
| GFTFYDYAMH | GISWNSGSIGHAGSVK | VGRGGGYFDY | 5.44 5.22 5.16 | 5.27 | 6/9 (4.88) |
| GHTFDDYIMH | GISWNSGSIGYADSVK | VGRGGGYWDY | ND ND 5.05 | 5.05 | 1/9 (4.07) |
| GFTFDDYAMH | GISWNSGSIGYANKVK | VGIGGGYFDY | 2.80 2.34 1.87 | 2.34 | 1/9 (4.76) |
| WFTFDDYAMH | AISWNSGSIGDADSVK | VGRGGGYFDY | ND ND ND | ND | 2/9 (4.11) |
| GFTVDDYAMH | GIFWNSGSIGYADSVK | VGRGGGYFDY | 4.94 6.11 4.73 | 5.26 | 7/9 (4.84) |
| GFTFDDYAMH | GISWNSGIIGYADSVK | VTRGGGYFDY | ND 6.24 4.58 | 5.41 | 6/9 (3.97) |
| GFTFDDYAMH | GISWNSGPIGYADSVK | SGRGGGYRDY | ND ND ND | ND | 0/9 |
| GATFDDYAMH | GISWNSGSIGEADSVK | VGRGWGYFDY | ND 3.50 ND | 3.50 | 0/9 |
| GFTFDDYAMH | GISWNGGSIGYADSMK | VGRGGGYADY | 4.00 2.86 4.22 | 3.69 | 3/9 (3.69) |
| GFRFDDYAMH | GISYNSGSIGYADSVK | VGRGGGYFDY | 1.18 1.25 0.29 | 0.91 | 6/9 (5.01) |
| GFTFDDYLMH | GISWNSGSISYADSVK | VGRQGGYFDY | 4.74 4.55 ND | 4.65 | 3/9 (3.57) |
| HFSFDDYAMH | GISWNSYSIGYADSVK | VGRGGGYFDY | 4.49 5.32 6.27 | 5.36 | 9/9 (5.18) |
| GFTFDDYAMC | DISWNSGIIGYADSVK | VGRGGGYFDY | ND ND ND | ND | 0/9 |
| GFTFDDYATV | GISWNSGSIGYYDSVK | VGRGGGYFDY | ND ND ND | ND | 1/9 (4.41) |
| NFTFDDYAMH | GISWNWGSWGYADSVK | VGRGGGYFDY | ND ND ND | ND | 0/9 |
| GFTFDDYAMH | GMSWNSGSIGYADSVK | VGRGGGYCDH | ND ND ND | ND | 0/9 |
| GFTFDDYAMH | GIGWNMGSIGYAVSVK | VGRGGGYFDY | 5.02 ND ND | 5.02 | 1/9 (4.99) |
| GFTFDDYGMH | GIYWNSGSIGYADSAK | VGRGGGYFDY | ND 4.83 ND | 4.83 | 1/9 (2.49) |
| GFTFDDYRMH | GISWNSGSKGYADFVK | VGRGGGYFDY | ND ND ND | ND | 4/9 (4.47) |
| GFQVDDYAMH | GISWNSGSIGYADSVK | VGRGEGYFDY | 5.73 4.55 ND | 5.14 | 6/9 (4.38) |
| GFTFDDYAMH | GIWWNSGSIGIADSVK | PGRGGGYFDY | 4.86 5.32 6.09 | 5.42 | 8/9 (5.02) |
| GFTFDCYAMH | GISINSGSIGYADSVK | VGGGGGYFDY | 4.58 ND 3.17 | 3.88 | 2/9 (3.97) |
| GFTFDDYALH | GISWNSGSIGYADHVK | VGRGGDYFDY | ND ND ND | ND | 1/9 (3.92) |
| AFTFDDYAMH | GISWNSGSLGYADSVK | VGRGGGYFDL | 2.42 2.79 2.36 | 2.52 | 0/9 |
| GFTFDDYAMH | GISWNSTSIGYADSVK | VGRMGGYFDL | 3.57 3.66 ND | 3.62 | 1/9 (4.61) |
| GSTFDDYAMH | GISWNSGSIGTADSVQ | VGRGGGYFDY | ND 4.02 ND | 4.02 | 4/9 (3.95) |
| GFTFDDYAMH | GISWNSGSIGYADSVV | VWRGGGYFEY | 3.06 3.25 2.43 | 2.91 | 3/9 (3.87) |
| GFTDDDFAMH | TISWNSGSIGYADSVK | VGRGGGYFDY | 4.89 4.86 ND | 4.88 | 4/9 (4.99) |
| GFTFDRSAMH | GISWNSGSIGYADSVK | VGRGGGYFDY | ND ND ND | ND | 0/9 |

For reference, 2 entries of the list once more:

CDR-H1,CDR-H2,CDR-H3,log10 Kd (nM) by replicate,"mean, log10 nM",signal with controls
GMTFDDYAMH,GISWNSGSIGYADSVK,CGRGGGYYDY,6.01 5.28 ND,5.65,6/9 (5.40)
GFTFDCYAMH,GISINSGSIGYADSVK,VGGGGGYFDY,4.58 ND 3.17,3.88,2/9 (3.97)

As a blank, each scFv also met three strains without target: over library AAYL51, 21% of these pairings were detected, typically at 4.54 and seldom below 3.26. Also given: how often the same scFv was detected with the empty control strains, with their mean in brackets.